For some assays here: The strong results were mostly taken out for another list; the other results follow. This is a selection; strong and weak results do not stand in their true shares.
Key:
[1] = biological target: Calcium/calmodulin-dependent protein kinase type II subunit gamma (Homo sapiens) (UniProt Q13555); conditions: at 1 µM
[2] = biological target: Cyclin-dependent kinase 2/cyclin E (Homo sapiens) (UniProt P24864+P24941+O96020); conditions: at 1 µM

By UniProt entry, the sequences of proteins in these tests, tags left out. Where a name states a change or a piece, a line headed by the entry shows the natural chain unless it says otherwise.
UniProt Q13555: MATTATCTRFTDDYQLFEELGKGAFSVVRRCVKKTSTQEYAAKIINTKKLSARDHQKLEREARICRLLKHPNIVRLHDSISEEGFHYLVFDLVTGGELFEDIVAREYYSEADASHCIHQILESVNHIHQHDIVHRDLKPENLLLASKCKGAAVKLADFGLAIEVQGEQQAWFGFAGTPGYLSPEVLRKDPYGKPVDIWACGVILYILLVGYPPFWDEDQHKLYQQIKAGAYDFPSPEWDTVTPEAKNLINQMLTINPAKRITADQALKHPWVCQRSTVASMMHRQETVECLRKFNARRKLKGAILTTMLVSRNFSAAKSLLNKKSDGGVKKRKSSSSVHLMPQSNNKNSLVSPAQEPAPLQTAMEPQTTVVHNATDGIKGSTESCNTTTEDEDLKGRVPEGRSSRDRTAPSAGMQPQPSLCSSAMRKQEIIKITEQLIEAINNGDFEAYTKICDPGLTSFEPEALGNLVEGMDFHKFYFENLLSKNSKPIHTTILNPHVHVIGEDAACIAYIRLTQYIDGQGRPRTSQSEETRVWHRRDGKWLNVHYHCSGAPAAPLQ
UniProt P24864, whole entry, looked up: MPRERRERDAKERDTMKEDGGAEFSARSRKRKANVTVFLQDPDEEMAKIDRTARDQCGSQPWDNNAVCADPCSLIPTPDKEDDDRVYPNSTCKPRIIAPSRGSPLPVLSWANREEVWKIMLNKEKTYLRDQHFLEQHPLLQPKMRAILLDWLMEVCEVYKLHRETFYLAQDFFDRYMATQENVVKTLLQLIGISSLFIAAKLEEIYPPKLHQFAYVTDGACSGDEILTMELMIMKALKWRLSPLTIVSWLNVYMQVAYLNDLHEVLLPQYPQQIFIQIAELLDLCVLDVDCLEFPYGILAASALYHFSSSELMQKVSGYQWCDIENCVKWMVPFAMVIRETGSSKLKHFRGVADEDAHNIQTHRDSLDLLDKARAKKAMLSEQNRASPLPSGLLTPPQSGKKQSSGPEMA
UniProt O96020, whole entry, looked up: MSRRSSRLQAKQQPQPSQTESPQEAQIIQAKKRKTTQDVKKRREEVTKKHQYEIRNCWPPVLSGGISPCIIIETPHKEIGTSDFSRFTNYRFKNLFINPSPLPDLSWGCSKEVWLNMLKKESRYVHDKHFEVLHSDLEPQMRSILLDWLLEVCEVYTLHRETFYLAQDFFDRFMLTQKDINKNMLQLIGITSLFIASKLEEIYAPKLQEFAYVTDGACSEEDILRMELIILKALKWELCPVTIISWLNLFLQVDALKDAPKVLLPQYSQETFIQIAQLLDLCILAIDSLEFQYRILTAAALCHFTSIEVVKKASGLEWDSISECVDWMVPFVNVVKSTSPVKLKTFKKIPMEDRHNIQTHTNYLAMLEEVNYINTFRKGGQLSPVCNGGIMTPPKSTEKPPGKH

Structure (SMILES)	residual activity [1] [%]	residual activity [2] [%]
O=C(Nc1nc2ccccc2n1CCN1CCOCC1)c1cccc([N+](=O)[O-])c1	102	
O=C1Cc2c([nH]c3ccc([N+](=O)[O-])cc23)-c2ccccc2N1		15
